Data published in patent US11780840B2 (Incyte Corporation, priority 2020, dated 2023).

By UniProt entry, the sequences of proteins in these tests, tags left out. Where a name states a change or a piece, a line headed by the entry shows the natural chain unless it says otherwise. Residues count along the entry.
UniProt O60674, 826-1132 limits assumed: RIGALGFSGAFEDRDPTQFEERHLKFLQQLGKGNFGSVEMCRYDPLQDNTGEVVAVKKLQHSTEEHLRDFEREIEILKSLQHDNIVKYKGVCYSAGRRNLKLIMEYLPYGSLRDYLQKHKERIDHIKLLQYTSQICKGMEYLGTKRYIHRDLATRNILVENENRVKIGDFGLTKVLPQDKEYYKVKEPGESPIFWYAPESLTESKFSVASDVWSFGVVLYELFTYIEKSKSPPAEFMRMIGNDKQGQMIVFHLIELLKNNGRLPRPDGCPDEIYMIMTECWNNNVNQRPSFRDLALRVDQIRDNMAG
UniProt O60674, 536-812 W659A/W777A/F794H limits assumed: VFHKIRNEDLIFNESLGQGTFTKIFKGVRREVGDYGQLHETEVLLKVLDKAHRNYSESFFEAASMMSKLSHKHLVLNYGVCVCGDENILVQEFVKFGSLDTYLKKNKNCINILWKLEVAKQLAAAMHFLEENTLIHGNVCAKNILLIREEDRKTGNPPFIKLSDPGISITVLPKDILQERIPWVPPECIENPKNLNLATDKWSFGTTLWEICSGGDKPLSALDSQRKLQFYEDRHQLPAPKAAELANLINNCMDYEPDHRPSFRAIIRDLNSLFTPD
UniProt O60674, 536-812 V617F/W659A/W777A/F794H limits assumed: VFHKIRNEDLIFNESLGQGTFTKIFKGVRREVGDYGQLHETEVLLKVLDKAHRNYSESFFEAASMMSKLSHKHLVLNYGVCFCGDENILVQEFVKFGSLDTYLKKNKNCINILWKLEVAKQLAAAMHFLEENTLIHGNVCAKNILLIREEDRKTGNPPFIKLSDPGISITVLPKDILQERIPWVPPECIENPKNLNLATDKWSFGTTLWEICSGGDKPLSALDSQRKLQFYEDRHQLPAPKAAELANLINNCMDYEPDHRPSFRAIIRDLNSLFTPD

Legend:
[1] = target: pseudo-kinase domain (JH2, amino-acids 536-812 with 3 surface mutations W659A, W777A, F794H) of human V617F mutant JAK2 (Homo sapiens, UniProt O60674, F794H/V617F/W659A/W777A); test: JAK2 LanthaScreen JH2-V617F Binding Assay; details: read-out: JH2 BIND V617F; JAK2 JH2-V617F (0.26 nM), 50 nM Fluorescent JAK2-JH2 Tracer, 1 hour at 25° C.
Experimental: Example C. JAK2 LanthaScreen JH2-V617F Binding Assay
(§1) JAK2 JH2-V617F binding assay utilizes pseudo-kinase domain (JH2, amino-acids 536-812 with 3 surface mutations W659A, W777A, F794H) of human V617F mutant JAK2 expressed as C-terminal His-Avi-tagged, biotinylated protein in a baculovirus expression system (BPS Bioscience, Catalog #79498). The assay was conducted in black 384-well polystyrene plates in a final reaction volume of 20 μL. JAK2 JH2-V617F (0.26 nM) was incubated with compounds (100 nL serially diluted in DMSO) in the presence of 50 nM Fluorescent JAK2-JH2 Tracer (MedChem Express Catalog #HY-102055) and 0.25 nM Streptavidin-Tb cryptate (Cisbio Part #610SATLB) in assay buffer (50 mM Tris, pH=7.5, 10 mM MgCl2, 0.01% Brij-35, 0.1% BSA, 1 mM EGTA, 5% Glycerol and 5 mM DTT). Non-specific binding was accessed in the presence of 2 mM ATP. After incubation for 1 hour at 25° C., LanthaScreen signals were read on a PHERAstar FS plate reader (BMG LABTECH). Data was analyzed with IDBS XLfit and GraphPad Prism 5.0 software using a four parameter dose response curve to determine IC50 for each compound.

[2] = target: pseudo-kinase domain (JH2, amino-acids 536-812 with 3 surface mutations W659A, W777A, F794H) of human Wild Type JAK2 (Homo sapiens, UniProt O60674, F794H/W659A/W777A); test: JAK2 LanthaScreen JH2-WT Binding Assay; details: read-out: JH2 BIND WT; JAK2 JH2-WT (0.145 nM), 50 nM Fluorescent JAK2-JH2 Tracer, 1 hour at 25° C.
Experimental: Example B. JAK2 LanthaScreen JH2-WT Binding Assay
as §1, with “JH2-WT” for “JH2-V617F”, “Wild Type” for “V617F mutant”, “#79463).” for “#79498).”, “JH2-WT (0.145” for “JH2-V617F (0.26”

[3] = target: catalytic domain (JH1, amino acids 826-1132) of human JAK2 (Homo sapiens, UniProt O60674); test: JAK2 LanthaScreen JH1 Binding Assay; details: read-out: JH1 BIND; JAK2 JH1 (1.5 nM), 50 nM fluorescent JAK2-JH1 tracer, 2 hours at 25° C.
Experimental: Example A. JAK2 LanthaScreen JH1 Binding Assay
JAK2 JH1 binding assay utilizes catalytic domain (JH1, amino acids 826-1132) of human JAK2 expressed as N-terminal FLAG-tagged, biotinylated protein in a baculovirus expression system (Carna Biosciences, Product #08-445-20N). The assay was conducted in black 384-well polystyrene plates in a final reaction volume of 20 μL. JAK2 JH1 (1.5 nM) was incubated with compounds (100 nL serially diluted in DMSO) in the presence of 50 nM fluorescent JAK2-JH1 tracer and 0.5 nM Streptavidin-Tb cryptate (Cisbio Part #610SATLB) in assay buffer (50 mM Tris, pH=7.5, 10 mM MgCl2, 0.01% Brij-35, 0.1% BSA, 1 mM EGTA, 5% Glycerol and 5 mM DTT). Non-specific binding was accessed in the presence of 2 mM ATP. After incubation for 2 hours at 25° C., LanthaScreen signals were read on a PHERAstar FS plate reader (BMG LABTECH). Data was analyzed with IDBS XLfit and GraphPad Prism 5.0 software using a four parameter dose response curve to determine IC50 for each compound.

For `COC(=O)N1C2CCC1CC(n1c(=O)n(C)c3cnc4[nH]c(-c5cnn(C)c5)c(-c5ccc6c(cnn6C)c5)c4c31)C2` (stereo not drawn), the IC50 [1] was < 10 nM, the IC50 [2] was < 10 nM and the IC50 [3] was > 1000 nM.
